Measurements reported in PubChem BioAssay (EPA / NIEHS).
The list shows a part of the results, in another mix than the full data. Inconclusive results are not listed. Activity calls are given as the source filed them. Rule for the calls, unless noted: active = hit-call score of the fitted dose curve at least 0.9, where 1 is the maximum; inactive = score below 0.9.

Protein sequences, listed by entry. Tags and fused reporters are not part of them. Lines headed by an entry give the natural chain unless they say otherwise; changes in a name come on top.
UniProt P43354, whole entry, looked up: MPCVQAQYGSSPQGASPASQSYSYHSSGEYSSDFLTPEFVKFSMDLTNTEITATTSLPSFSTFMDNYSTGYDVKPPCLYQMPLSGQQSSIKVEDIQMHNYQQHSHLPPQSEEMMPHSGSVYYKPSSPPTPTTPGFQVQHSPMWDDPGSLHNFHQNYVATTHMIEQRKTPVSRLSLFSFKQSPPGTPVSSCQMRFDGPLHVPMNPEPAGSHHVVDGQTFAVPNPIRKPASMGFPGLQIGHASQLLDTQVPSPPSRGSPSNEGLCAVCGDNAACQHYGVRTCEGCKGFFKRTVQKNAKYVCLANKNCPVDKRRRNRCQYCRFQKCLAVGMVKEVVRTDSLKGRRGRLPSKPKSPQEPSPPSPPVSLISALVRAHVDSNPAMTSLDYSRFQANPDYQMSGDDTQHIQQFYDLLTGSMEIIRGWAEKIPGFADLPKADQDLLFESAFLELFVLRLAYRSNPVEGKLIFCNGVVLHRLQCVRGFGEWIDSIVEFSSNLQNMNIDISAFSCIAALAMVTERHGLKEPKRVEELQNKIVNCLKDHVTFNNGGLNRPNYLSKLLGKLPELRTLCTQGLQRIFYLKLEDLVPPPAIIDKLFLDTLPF
UniProt P10242: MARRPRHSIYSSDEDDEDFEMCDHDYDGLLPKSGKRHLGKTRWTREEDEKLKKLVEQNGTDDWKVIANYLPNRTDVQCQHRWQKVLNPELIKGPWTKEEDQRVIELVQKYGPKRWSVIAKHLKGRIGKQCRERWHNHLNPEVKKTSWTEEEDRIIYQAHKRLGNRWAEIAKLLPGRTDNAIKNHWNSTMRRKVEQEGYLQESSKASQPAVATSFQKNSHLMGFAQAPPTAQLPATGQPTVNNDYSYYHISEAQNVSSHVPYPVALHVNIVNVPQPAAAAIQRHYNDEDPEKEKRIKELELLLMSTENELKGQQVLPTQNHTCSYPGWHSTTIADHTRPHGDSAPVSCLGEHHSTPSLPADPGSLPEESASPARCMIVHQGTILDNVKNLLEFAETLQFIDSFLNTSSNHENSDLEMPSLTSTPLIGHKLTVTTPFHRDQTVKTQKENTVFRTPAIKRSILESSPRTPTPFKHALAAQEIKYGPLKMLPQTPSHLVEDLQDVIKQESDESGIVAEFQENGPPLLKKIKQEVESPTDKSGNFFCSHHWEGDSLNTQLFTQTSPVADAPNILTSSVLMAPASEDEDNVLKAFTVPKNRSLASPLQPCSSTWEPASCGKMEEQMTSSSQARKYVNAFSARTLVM

biological target: Nuclear receptor subfamily 4 group A member 2 (Homo sapiens) (UniProt P43354); experiment: ATG_NURR1_TRANS: Attagene TRANS-FACTORIAL HepG2 Assay for human Nuclear Receptor Related Protein 1 (NURR1) (AID 2282985; active = hit-call score of the fitted dose curve at least 0.9, where 1 is the maximum); details: HepG2 Attagene TRANS reporter, mRNA readout
Method in brief: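 Chimeric NR-Gal4 proteins were expressed in human HepG2 cells bearing GAL4-UAS reporter units, and induced reporter mRNA was quantified 24 h post-dosing by RT-PCR and capillary electrophoresis.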

| SMILES | outcome |
| --- | --- |
| O=P(Cl)(Oc1ccccc1)Oc1ccccc1 | inactive |
| ClP(Cl)c1ccccc1 | inactive |
| CC(C)OP(=S)(OC(C)C)SCCNS(=O)(=O)c1ccccc1 | inactive |
| O=[As]c1ccccc1 (configuration not stated) | inactive |
| O=[p+]1oc2ccccc2c2ccccc21 (configuration not stated) | inactive |

biological target: Transcriptional activator Myb (Homo sapiens) (UniProt P10242); experiment: ATG_Myb_CIS: Attagene CIS-FACTORIAL HepG2 Assay for human Myeloblastosis (Myb) Proto-Oncogene Transcription Factor (AID 2282986); details: HepG2 Attagene CIS-FACTORIAL Myb reporter transcription; actives raise or lower the signal
Method in brief: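 Multiplexed cis-reporter system in HepG2: transient transfection, 24 h treatment, mRNA readout by RT-PCR and capillary electrophoresis. Both increases and decreases are scored versus DMSO negative control.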

| SMILES | outcome | AC50 |
| --- | --- | --- |
| Cc1cc([N+](=O)[O-])cc([N+](=O)[O-])c1O | inactive |  |
| O=[N+]([O-])c1ccc([N+](=O)[O-])cc1 |  | active: 149 µM |
| CCCCOP(OCCCC)OCCCC | inactive |  |
| O=P(Cl)(Oc1ccccc1)Oc1ccccc1 | inactive |  |
| ClP(Cl)c1ccccc1 | inactive |  |
| O=C1C2CC=CCC2C(=O)N1SC(Cl)(Cl)C(Cl)Cl (configuration not stated) | inactive |  |
| N#CSc1ccc([N+](=O)[O-])cc1[N+](=O)[O-] | inactive |  |
| CC(C)OP(=S)(OC(C)C)SCCNS(=O)(=O)c1ccccc1 | inactive |  |
| O=[P+](Oc1ccccc1)Oc1ccccc1 | inactive |  |
| CCCCC(CC)CO[P+](=O)OCC(CC)CCCC (configuration not stated) | inactive |  |
| CC(C)CCCCCCCOP(OCCCCCCCC(C)C)Oc1ccccc1 | inactive |  |
| O=C(Cl)Oc1ccccc1 | inactive |  |
| CN(C(=O)Cc1cccc2occc12)[C@H]1CC[C@@]2(CCCO2)C[C@@H]1N1CCCC1 | inactive |  |
| O=C(Cl)OCCOC(=O)Cl | inactive |  |
| CCCCO[P+](=O)OCCCC | inactive |  |
| O=[As]c1ccccc1 (configuration not stated) |  | active: 0.412 µM |
| O=[p+]1oc2ccccc2c2ccccc21 (configuration not stated) | inactive |  |
